Bridge positions count the residues as written; N and C are the ends. Peptide text beside a SMILES is read from it. * marks the point of attachment. X1 = CN(C)c1ccc2c(c1)Oc1cc(N(C)C)ccc1C21OC(=O)c2cc(NC(=O)C*)ccc21
Tested on: MCF‐7 breast cancer cells
Test: Live cell confocal laser microscopy of TMR‐labeled peptides (cell membrane permeability)
Conditions: MCF‐7 cells, 3 μM TMR‐labeled peptide, 5‐min incubation, 5% CO2, nuclei stained with Hoechst 33 342, fluorescence imaging

CC(C)C[C@@H]1NC(=O)[C@H](C)NC(=O)[C@H](C)NC(=O)[C@H](CC(C)C)NC(=O)[C@H](CCCCN)NC(=O)CNC(=O)CNC(=O)CNC(=O)CNC(=O)CNC(=O)CNC(=O)CNC(=O)[C@H](CCC(=O)O)NC(=O)[C@H](CC(C)C)NC(=O)[C@H](CCCNC(=N)N)NC(=O)[C@H](CCCNC(=N)N)NC(=O)[C@H](CC(C)C)NC(=O)[C@H](CCC(=O)O)NC(=O)[C@H](CCCNC(=N)N)NC(=O)[C@H](CCC(=O)O)NC(=O)[C@H](CC(C)C)NC(=O)[C@H](CCCNC(=N)N)NC(=O)[C@H](CCCNC(=N)N)NC(=O)[C@H](CC(C)C)NC(=O)[C@H](CCC(=O)O)NC(=O)[C@H](CCCNC(=N)N)NC(=O)[C@H](CSCC(=O)Nc2ccc3c(c2)C(=O)OC32c3ccc(N(C)C)cc3Oc3cc(N(C)C)ccc32)NC(=O)CNC(=O)CSC[C@@H](C(N)=O)NC(=O)[C@H](Cc2ccc(O)cc2)NC(=O)[C@H](C)NC(=O)[C@H](CCCCN)NC(=O)[C@H](CC(C)C)NC(=O)[C@H](CC(C)C)NC(=O)[C@H](CC(C)C)NC(=O)[C@H](CC(C)C)NC(=O)[C@H](CCCCN)NC(=O)[C@H](CC(C)C)NC(=O)[C@H](CCCCN)NC1=O [TMR‐cHLH‐ERα] ({CH2CO}-GC(X1)RELRRLERELRRLEGGGGGGGKLAALKLKLLLLKAYC-NH2; thioether N-39)
cell membrane permeability, confocal laser microscopy, 37 °C: appeared diffuse inside the cells and partially accumulated inside the nuclei
